From patent US8247572B2, “Facilitated transport of bisphosphonates by vitamin C” (Duke University, priority 2005, dated 2012) come the findings set out here.

For data set [1], the system named is primary human chondrocytes. The data set is described as follows: Ascorbic acid transport assay in isolated primary human chondrocytes. The method, then:
Ascorbic Acid Transport Assay in Isolated Primary Human Chondrocytes. AA transport was measured using a modified version of the uptake assay published by Wilson and Dixon (J. X. Wilson, S. J. Dixon, High-Affinity Sodium-Dependent Uptake of Ascorbic Acid by Rat Osteoblasts, J. Mem. Biol. 111 (1989) 83-91). Primary human chondrocytes were seeded at a density of 4.5×10^5 cells/well on a 6-well plate (or 2.25×10^5 cells/well on a 12-well plate for the kinetic experiments). Prior to the transport assay, cells were plated for 48 hours in DMEM/F12, containing 10% FCS but no AA. Cells were washed in transport buffer containing: 134 mM NaCl, 5.4 mM KCl, 1.8 mM CaCl2, 0.8 mM MgSO4, 10 mM D-glucose, 20 mM HEPES, pH 7.3 with NaOH. […] The standard AA transport assay conditions were 37° C./5% CO2 for 10 minutes. AA uptake was terminated by washing the cells four-times in ice-cold PBS. The cells were lysed with Puregene Cell Lysis Solution (Gentra Systems) and scintillation counting was performed in Uniscint BD (National Diagnostics).
In experiments with sodium free transport buffer, iso-osmotic concentrations of LiCl were substituted for NaCl. […]

The test system of data set [2] is human articular cartilage explants. As to conditions: 21 hours.

On to L-[^14C]-ascorbic acid [L-^14C-Asc], for which the “L-14C-Asc transported in the presence versus absence of sodium” value in data set [1] (134 mM Na+, 10 minutes, p<0.001) was “approximately 3 fold”. The “passive diffusion of L-14C-Asc into human chondrocytes” value in data set [1] (in 10 minutes, 4° C. or absence of sodium) is “about 45 μmol L-^14C-Asc/10^6 cells”. Further, the “L-14C-Asc transported at 37° C. versus 4° C.” value in data set [1] (in the presence of sodium, 10 minutes, p<0.001) was determined as 3.8 fold. The “L-14C-Asc in live explants versus dead explants” value in data set [2] (p=0.05) is 2 fold. In addition, the “L-14C-Asc content of dead explants” value in data set [2] (dead (freeze/thaw) explants, 50 μM L-14C-Asc) is 7.77+/−3.03 pmol L-^14C-Asc/mg tissue. Also, in data set [2] (live explants, 50 μM L-14C-Asc), the “L-14C-Asc content of whole live explants” value is given as 16.56+/−4.22 pmol L-^14C-Asc/mg tissue.
